The target in one experiment is human GlyT1c (Homo sapiens (Human), UniProt P48067). The experiment is described as follows: [3H]-Glycine uptake into recombinant CHO cells expressing human GlyT1. It counts as cell-based. The settings on record: read-out: Glycine uptake IC50, hGlyT1c_5_CHO cells, 200 nM [3H]-glycine. As for the experimental part: [^3H]-Glycine uptake into recombinant CHO cells expressing human GlyT1: Human GlyT1c expressing recombinant hGlyT1c—5_CHO cells were plated at 20,000 cells per well in 96 well Cytostar-T scintillation microplates (Amersham Biosciences) and cultured to sub-confluency for 24 h. […] The plates were placed in a Wallac Microbeta (PerkinElmer) and continuously counted by solid phase scintillation spectrometry during up to 3 hours. […] IC50 calculations were made by four-parametric logistic nonlinear regression analysis (GraphPad Prism) using determinations within the range of linear increase of [^3H]-glycine incorporation between 60 and 120 min.

Sequences of proteins named here, by UniProt entry; tags and fusion partners are left off.
UniProt P48067, whole entry: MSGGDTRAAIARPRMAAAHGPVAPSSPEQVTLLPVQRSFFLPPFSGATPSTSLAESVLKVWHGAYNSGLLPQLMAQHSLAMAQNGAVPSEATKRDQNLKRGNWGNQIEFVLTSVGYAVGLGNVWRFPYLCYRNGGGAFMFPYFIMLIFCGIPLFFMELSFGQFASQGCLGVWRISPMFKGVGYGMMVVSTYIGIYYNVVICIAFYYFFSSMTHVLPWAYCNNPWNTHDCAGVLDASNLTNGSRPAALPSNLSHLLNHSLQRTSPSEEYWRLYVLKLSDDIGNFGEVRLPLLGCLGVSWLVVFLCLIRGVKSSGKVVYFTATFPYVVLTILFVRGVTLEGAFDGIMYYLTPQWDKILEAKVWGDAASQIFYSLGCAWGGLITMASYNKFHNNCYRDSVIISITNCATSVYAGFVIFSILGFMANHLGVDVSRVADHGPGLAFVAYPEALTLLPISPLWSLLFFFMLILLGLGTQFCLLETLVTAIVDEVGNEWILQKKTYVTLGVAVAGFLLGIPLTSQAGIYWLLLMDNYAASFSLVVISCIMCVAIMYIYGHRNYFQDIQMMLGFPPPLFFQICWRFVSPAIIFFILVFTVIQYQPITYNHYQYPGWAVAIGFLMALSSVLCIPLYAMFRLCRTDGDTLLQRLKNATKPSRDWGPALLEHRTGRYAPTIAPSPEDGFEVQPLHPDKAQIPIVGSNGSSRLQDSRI

The target in the next experiment is human GlyT1c transporter (Homo sapiens (Human), UniProt P48067). Kind of experiment: Radioligand binding assay using recombinant CHO cell membranes expressing human GlyT1. The settings on record: read-out: radioligand binding Kiapp, radioligand [3H]-(R)-NPTS (examples 1-19, 22-52, 54-87), tested form: HCl. As for the experimental part: 2. Radioligand binding assays using recombinant CHO cell membranes expressing human GlyT1:
Radioligand binding to human GlyT1c transporter-expressing membranes was carried out as described in Mezler et al., Molecular Pharmacology 74:1705-1715, 2008.
More specifically, [^3H]-(R)-NPTS radioligand binding to human GlyT1c transporter-expressing membranes was measured in duplicate in a total volume of 200 μl in 96-well plates. To 100 μl of membrane suspension (yielding a final membrane protein concentration of 50 μg/ml) in assay buffer (120 mM NaCl, 2 mM KCl, 10 mM Hepes, 1 mM MgCl2, 1 mM CaCl2, pH 7.5) […] of [^3H]-(R)-NPTS (0.5 nM final) were added in assay buffer. For competition experiments 10 μl of buffer or unlabeled compound solution obtained from dilution series of test compounds in DMSO followed. An intermediate 1:10 dilution in assay buffer yielded a final DMSO concentration of 1%. Non-specific binding was determined in the presence of 10 μM Org24598 (or its racemate Org24461) for [^3H]-(R)-NPTS. After incubation at room temperature for 1 h, the incubation mixture was harvested (Tomtec Mach III U Harvester) through 96-well GF/B filter plates (PerkinElmer), presoaked for 1 h with 40 μl per well of 0.1% polyethylene-imine (PEI). […] The radioactivity was determined by liquid scintillation spectrometry in a MicroBeta (PerkinElmer) plate counter. […]

Where two headings read alike, the source gives them in different places.

`O=S(=O)(NCCOc1ccc2c(c1)CCNC2C1(c2ccc(Cl)cc2)CCC1)c1cccnc1` (stereo not shown): on human GlyT1c (tested form: 2HCl), the IC50 was not above 10 µM.
Take `CC(C)S(=O)(=O)NCCOc1ccc2c(c1)CCNC2C1(c2ccc(Cl)cc2)CCC1` (stereo not shown): the half-inhibitory concentration (IC50) at human GlyT1c (tested form: HCl) is not above 100 µM. The Ki at human GlyT1c transporter was not above 100 µM.
On to `CCCS(=O)(=O)NCCOc1ccc(Br)c2c1C(C1(c3ccc(F)cc3)CCC1)NCC2` (stereo not shown), for which the IC50 at human GlyT1c (tested form: HCl) was not above 1 µM.

As usually defined, the IC50 is the concentration that gives 50% inhibition.

The values are drawn from patent publication US8653100B2 (AbbVie Inc., priority 2008, dated 2014).
